Values quoted from earlier work, collected in paper PMC10029980 (Journal of medicinal chemistry, 2022).

Conditions: cited from earlier work

In the case of CC(C)NC(=O)N1CC[C@H](NC2=Nc3cc(F)ccc3N(CC(F)F)c3ccc(Cl)cc32)C1 [NVS-PAK1-1], the “half-life in rat liver microsomes” value is given as “short half-life”.
